The values that follow come from ChEMBL document CHEMBL4602692, “Synthesis and Biological Evaluation of Tryptamines Found in Hallucinogenic Mushrooms: Norbaeocystin, Baeocystin, Norpsilocin, and Aeruginascin” (J Nat Prod, 2020).

Sequences of proteins named here, by UniProt entry; tags and fusion partners are left off.
UniProt P28223, whole entry: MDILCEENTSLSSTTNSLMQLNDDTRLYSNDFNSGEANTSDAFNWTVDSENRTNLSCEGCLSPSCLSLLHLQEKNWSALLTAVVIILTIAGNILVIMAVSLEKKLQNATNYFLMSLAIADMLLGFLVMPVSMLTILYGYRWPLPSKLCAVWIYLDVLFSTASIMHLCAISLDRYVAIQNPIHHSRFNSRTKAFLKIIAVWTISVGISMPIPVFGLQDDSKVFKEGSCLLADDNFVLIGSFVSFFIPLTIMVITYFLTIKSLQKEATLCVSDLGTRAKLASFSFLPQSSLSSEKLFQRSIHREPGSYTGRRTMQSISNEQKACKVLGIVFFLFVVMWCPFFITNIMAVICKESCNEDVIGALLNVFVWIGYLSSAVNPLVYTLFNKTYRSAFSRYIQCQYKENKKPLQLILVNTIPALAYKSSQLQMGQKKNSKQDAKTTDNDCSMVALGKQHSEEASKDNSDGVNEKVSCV

SMILES strings stand for the structures.

In this assay the target is 5-hydroxytryptamine receptor 2A (Homo sapiens, UniProt P28223). Description: Agonist activity at human 5-HT2A receptor expressed in Flp-In T-REx 293 cells assessed as induction of Gq-mediated calcium flux incubated for 1 hr by Flou4-AM dye based FLIPR assay. In kind it is functional, cell-based. In general terms: Calcium assays in cells follow changes in intracellular calcium, usually with a dye or a luminescent sensor.

As usually defined, the EC50 is the concentration that produces a half-maximal response.

Consider `CNCCc1c[nH]c2cccc(O)c12`, for which the EC50 turned out to be 8.4 nM.
